Experimental data reported in ChEMBL document CHEMBL5058646 (2022).

Protein sequences, listed by entry. Tags and fused reporters are not part of them. Lines headed by an entry give the natural chain unless they say otherwise; changes in a name come on top.
UniProt Q9UKI8: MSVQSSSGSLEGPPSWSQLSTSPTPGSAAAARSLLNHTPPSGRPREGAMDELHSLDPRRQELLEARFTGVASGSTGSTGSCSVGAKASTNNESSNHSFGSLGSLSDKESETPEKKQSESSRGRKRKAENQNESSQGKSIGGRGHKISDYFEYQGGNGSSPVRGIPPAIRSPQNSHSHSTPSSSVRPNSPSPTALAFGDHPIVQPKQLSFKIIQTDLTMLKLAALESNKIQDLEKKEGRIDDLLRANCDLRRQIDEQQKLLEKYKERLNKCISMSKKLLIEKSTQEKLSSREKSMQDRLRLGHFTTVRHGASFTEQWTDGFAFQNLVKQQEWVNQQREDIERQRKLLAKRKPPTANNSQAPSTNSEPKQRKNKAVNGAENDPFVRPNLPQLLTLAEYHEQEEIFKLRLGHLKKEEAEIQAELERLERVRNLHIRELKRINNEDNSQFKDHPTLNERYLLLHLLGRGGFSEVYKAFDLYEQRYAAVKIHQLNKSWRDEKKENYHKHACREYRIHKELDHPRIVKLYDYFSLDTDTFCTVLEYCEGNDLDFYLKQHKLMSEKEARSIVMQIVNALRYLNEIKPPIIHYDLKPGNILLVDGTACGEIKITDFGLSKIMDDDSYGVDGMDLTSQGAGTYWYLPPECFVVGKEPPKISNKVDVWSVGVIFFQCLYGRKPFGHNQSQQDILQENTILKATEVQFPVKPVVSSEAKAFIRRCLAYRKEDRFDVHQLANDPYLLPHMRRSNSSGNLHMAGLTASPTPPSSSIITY

Tests used:
[1] = target: T1, Zinc finger and BTB domain-containing protein 40 (Homo sapiens) (UniProt Q9NUA8); details: OCI-Ly1
T1 sequence (whole entry): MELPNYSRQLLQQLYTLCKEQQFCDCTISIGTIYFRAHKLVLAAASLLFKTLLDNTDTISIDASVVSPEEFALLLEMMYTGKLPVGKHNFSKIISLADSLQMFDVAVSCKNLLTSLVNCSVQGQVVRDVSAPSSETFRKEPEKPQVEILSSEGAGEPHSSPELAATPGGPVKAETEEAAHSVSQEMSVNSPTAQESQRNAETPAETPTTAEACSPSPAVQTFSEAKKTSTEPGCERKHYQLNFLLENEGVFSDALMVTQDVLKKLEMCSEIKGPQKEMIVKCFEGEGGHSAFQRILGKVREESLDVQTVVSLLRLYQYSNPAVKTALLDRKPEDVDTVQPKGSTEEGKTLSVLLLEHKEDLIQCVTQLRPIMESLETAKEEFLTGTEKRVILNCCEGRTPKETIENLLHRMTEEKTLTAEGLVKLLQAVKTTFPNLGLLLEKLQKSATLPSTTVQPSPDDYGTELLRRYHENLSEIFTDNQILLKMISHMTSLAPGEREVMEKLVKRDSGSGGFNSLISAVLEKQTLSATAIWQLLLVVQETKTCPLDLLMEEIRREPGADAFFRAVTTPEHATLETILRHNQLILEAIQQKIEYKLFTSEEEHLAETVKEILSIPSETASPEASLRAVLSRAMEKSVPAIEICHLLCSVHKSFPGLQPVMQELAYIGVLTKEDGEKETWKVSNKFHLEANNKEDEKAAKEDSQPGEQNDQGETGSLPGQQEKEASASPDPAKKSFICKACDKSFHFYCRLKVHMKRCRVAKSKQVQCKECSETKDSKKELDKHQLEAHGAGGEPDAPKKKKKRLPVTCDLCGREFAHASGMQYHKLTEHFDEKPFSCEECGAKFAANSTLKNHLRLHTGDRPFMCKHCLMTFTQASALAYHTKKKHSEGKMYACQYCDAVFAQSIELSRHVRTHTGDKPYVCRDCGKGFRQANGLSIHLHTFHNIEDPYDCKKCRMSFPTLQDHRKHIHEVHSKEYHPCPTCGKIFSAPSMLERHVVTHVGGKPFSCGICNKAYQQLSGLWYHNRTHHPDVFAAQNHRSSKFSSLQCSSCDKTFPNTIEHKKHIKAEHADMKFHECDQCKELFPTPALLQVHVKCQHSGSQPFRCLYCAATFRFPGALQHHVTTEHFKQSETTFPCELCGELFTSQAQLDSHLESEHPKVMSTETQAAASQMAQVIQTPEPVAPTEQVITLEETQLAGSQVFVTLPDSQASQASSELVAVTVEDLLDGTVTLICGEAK

[2] = target: T2, Zinc finger and BTB domain-containing protein 17 (Homo sapiens) (UniProt Q13105); details: SUD4
T2 sequence (whole entry): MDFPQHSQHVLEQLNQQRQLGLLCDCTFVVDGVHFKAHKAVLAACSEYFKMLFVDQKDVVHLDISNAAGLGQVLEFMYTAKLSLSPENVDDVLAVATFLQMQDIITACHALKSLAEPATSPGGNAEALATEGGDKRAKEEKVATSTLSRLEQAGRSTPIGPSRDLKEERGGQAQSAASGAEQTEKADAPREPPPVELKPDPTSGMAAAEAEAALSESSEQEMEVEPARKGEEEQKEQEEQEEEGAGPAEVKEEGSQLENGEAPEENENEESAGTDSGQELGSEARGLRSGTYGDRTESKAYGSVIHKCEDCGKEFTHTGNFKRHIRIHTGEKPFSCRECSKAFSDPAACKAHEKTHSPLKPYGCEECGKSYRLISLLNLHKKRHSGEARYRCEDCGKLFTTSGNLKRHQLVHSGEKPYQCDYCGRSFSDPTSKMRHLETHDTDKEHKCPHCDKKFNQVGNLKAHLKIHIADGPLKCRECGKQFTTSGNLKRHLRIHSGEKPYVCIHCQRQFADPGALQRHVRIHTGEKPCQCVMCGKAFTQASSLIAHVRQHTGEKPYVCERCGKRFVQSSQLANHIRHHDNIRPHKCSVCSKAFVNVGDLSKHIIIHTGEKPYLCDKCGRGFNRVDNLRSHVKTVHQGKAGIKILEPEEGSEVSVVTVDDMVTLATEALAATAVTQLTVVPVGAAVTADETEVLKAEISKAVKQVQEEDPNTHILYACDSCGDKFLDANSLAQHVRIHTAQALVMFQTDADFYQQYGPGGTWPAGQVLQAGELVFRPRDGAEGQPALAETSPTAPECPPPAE

[3] = target: B-cell lymphoma 6 protein (Homo sapiens, UniProt P41182); details: SUD4
[4] = target: Serine/threonine-protein kinase tousled-like 1 (Homo sapiens) (UniProt Q9UKI8); details: Compound concentration 20.0 uM
[5] = target: T3, Telomere zinc finger-associated protein (Homo sapiens) (UniProt P10074); details: SUD4
T3 sequence (whole entry): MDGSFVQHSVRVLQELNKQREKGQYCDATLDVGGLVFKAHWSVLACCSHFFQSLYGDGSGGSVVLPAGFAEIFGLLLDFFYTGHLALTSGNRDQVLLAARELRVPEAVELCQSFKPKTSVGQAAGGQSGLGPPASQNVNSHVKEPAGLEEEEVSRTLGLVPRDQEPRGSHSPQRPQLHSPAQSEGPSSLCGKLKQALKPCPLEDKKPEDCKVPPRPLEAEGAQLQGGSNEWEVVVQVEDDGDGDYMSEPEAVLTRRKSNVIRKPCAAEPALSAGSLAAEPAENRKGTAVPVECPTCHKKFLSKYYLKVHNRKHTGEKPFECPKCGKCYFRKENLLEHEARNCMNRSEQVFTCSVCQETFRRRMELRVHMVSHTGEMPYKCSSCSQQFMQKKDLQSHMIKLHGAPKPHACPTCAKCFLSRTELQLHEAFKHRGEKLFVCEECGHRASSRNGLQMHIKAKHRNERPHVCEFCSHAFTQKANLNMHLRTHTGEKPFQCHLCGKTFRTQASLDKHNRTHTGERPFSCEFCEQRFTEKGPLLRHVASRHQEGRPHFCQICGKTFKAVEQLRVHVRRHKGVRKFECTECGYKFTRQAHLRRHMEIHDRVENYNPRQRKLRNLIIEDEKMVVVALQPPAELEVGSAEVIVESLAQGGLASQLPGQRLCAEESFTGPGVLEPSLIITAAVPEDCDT

Normalized abundances for DMSO [1]: 94.7
Normalized abundances for compound [1]: 82.8
Normalized abundances for DMSO [2]: 257
Normalized abundances for compound [2]: 263
Normalized abundances for DMSO [3]: 12200
Normalized abundances for compound [3]: 5550
Tm [4]: 49 °C
Normalized abundances for DMSO [5]: 1060
Normalized abundances for compound [5]: 1080
SMILES: C[C@@H]1CN(c2ncc(Cl)c(Nc3ccc4c(c3)n(CCC(C)(C)O)c(=O)n4C)n2)C[C@H](C)C1(F)F
